{"source": "patent US5100881A", "about": "(priority 1989, dated 1992)", "system": "human lung cancer grafted into NUDE (LX1) mice"}
{"smiles": "CC[C@]1(O)C[C@@H]2CN(CCc3c([nH]c4ccccc34)[C@@](C(=O)OC)(c3cc4c(cc3OC)N(C)[C@H]3[C@@](O)(C(=O)OC)[C@H](OC(C)=O)[C@]5(CC)C=CCN6CC[C@]43[C@@H]65)C2)C1", "note": "[Vinblastine, vinblastine]", "values": [{"measurement": "T/C (tumor volume treated animals/tumor volume control animals)", "setting": "1 mg/kg i.p. at D0, D3, D6 and D9", "value": 56}, {"measurement": "SGD (Standard Growth Delay)", "setting": "1 mg/kg i.p. at D0, D3, D6 and D9, tumor 5 mm x 5 mm at start", "value": 1.5}, {"measurement": "antitumor activity on LX1 human lung cancer (in words)", "setting": "i.p. at D0, D3, D6 and D9", "value": "very little activity"}]}
